In ChEMBL document CHEMBL5316273, “Small Molecule Inhibitors of Protein Kinase D: Early Development, Current Approaches, and Future Directions” (J Med Chem, 2023):

Assay: Selectivity index, ratio of IC50 for inhibition of PKD1 (unknown origin) to IC50 for inhibition of PKD1 autophosphorylation at S916 residue in human PANC-1 cells
Assay type: cell-based

For `CC[C@H](N)CNc1ccnc(-c2cc(-c3cnn(C)c3)ccc2O)n1`, the Ratio IC50 was > 1000.
